Measured values from PubChem BioAssay AID678 (Vanderbilt High Throughput Screening Facility, 2007).
Most of the hits are listed elsewhere, so they are rarer here than in the full data. Calls of active or inactive are those of the source.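 Rule for the calls: active = fluorescence response below the plate's average for near-maximal glutamate wells, less 3 SD of those wells; inactive = the rest.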

What follows are molecules tested against Metabotropic glutamate receptor 4 (Homo sapiens) (UniProt Q14833) (assay: human mGluR4 response to M1 antagonist hits, M1 allosteric modulator project, cell-based, antagonist mode, secondary assay 1 (AID 678;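 note: raw unnormalized fluorescence span taken in the window right after glutamate addition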)). Conditions: CHO-mGluR4 calcium flux, Fluo-4 fluorescence, glutamate EC80; at 10 µM; active compounds read low.

Structure (SMILES)	fluorescence response (max-min)
C[N+]1(C)[C@@H]2CC(OC(=O)[C@H](CO)c3ccccc3)C[C@H]1[C@@H]1O[C@@H]12 (stereo partly specified)	inactive: 245
